{
  "source": "paper PMC6332448",
  "about": "“SAR Studies Leading to the Identification of a Novel Series of Metallo-β-lactamase Inhibitors for the Treatment of Carbapenem-Resistant Enterobacteriaceae Infections That Display Efficacy in an Animal Infection Model” (ACS Infectious Diseases, 2018)",
  "experiment_in_all_cases": "biochemical",
  "key": {"VIM-1": {"target": "VIM-1 (Pseudomonas aeruginosa, UniProt A0A0F7KYQ8)"}, "NDM-1": {"target": "NDM-1 (Klebsiella pneumoniae, UniProt C7C422)", "conditions": "NDM-1 IC50, 300 μM imipenem, 10 mM HEPES pH 7.5, 25 °C; average of at least two independent assays"}, "IMP-1": {"target": "IMP-1 (Serratia marcescens, UniProt P52699)"}, "VIM-2": {"target": "VIM-2 (Escherichia coli, UniProt Q5U7L7)"}},
  "data": [
    {"smiles": "O=C(O)c1cc2ccccc2cn1", "note": "[Compound 11]", "values": [
      {"measurement": "IC50", "setting": "VIM-1", "value": "> 200", "unit": "µM"},
      {"measurement": "IC50", "setting": "NDM-1", "value": 19.4, "unit": "µM"},
      {"measurement": "IC50", "setting": "IMP-1", "value": "> 200", "unit": "µM"},
      {"measurement": "IC50", "setting": "VIM-2", "value": "> 200", "unit": "µM"}
    ]}
  ]
}
